Target: BTK (Homo sapiens (Human), UniProt Q06187)
Assay: In vitro BTK kinase activity measured by trFRET
Assay type: biochemical
Details: read-out: Btk enzyme IC50; recombinant human catalytic domain (aa 393-659), 0.01 mM ATP
Protocol: In Vitro BTK Kinase Activity Measured by Time-Resolved Fluorescence Resonance Energy Transfer (trFRET)
The in-house BTK corresponds to recombinant human catalytic domain (aa 393-659), which was expressed in SF9 cells with an N-terminal his tag and purified by immobilized metal affinity chromatography. BTK was mixed with peptide substrate (biotin-TYR1, Sequence: Biotin-(Ahx)-GAEEEIYAAFFA-COOH, 0.4 μM final) at varying inhibitor concentrations in reaction buffer: 50 mM MOPSO pH 6.5, 10 mM MgCl2, 2 mM MnCl2, 2.5 mM DTT, 0.01% BSA, 0.1 mM Na3VO4 and 0.01 mM ATP. After about 60 min incubation at rt, the reaction was quenched by addition of EDTA (final concentration: 100 mM) and developed by addition of detection reagents (final approximate concentrations: 30 mM HEPES pH 7.0, 0.06% BSA, 0.006% Tween-20, 0.24 M KF, 80 ng/mL PT66K (europium labeled anti-phosphotyrosine antibody cat #61T66KLB Cisbio, Bedford, Mass.) and 0.6 μg/mL SAXL (Phycolink streptavidin-allophycocyanin acceptor, cat #PJ25S, Prozyme, San Leandro, Calif.). The developed reaction was incubated in the dark for about 60 min at rt, then read via a time-resolved fluorescence detector (Rubystar, BMG) using a 337 nm laser for excitation and monitoring emission wavelength at 665 nm. […]

The chains behind the UniProt entries cited, without tags or fusion partners. Residues count along the entry.
UniProt Q06187, 393-659 limits assumed: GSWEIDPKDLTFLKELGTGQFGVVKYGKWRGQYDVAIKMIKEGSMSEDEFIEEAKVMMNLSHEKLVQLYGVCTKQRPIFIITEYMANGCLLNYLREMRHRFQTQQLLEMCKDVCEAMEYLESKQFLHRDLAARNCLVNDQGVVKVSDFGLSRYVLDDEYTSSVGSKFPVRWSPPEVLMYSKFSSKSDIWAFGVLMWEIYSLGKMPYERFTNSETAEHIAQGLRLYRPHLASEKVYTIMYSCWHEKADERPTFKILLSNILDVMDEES

IC50: 1 to 50 µM
SMILES: C=CC(=O)N1CCC(c2cc(Nc3cc(N4CCOCC4)ccn3)c3ncnn3c2)C1 (stereo not shown)

From patent publication US10280184B2, “Heterocyclic kinase inhibitors” (AbbVie Inc., priority 2014, dated 2019)
